Shown are actives, neighbours in structure and some others; about 2.1% of the full set was active somewhere.
PDI turbidity – blocks human protein disulfide isomerase activity; P07237; PDI insulin aggregation turbidity, A650, 90 min; AID 588391; 350,000 tested, 0.052% active; inhibition, % at 10 µM;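 active = mean inhibition across replicates of 30% or more, whatever share of single replicates reach that level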
ERp5 inh – blocks human ERp5 reductase activity on insulin. 350,000 tested, 0.05% active. inhibition, % at 9.99 µM. AID 651711. ERp5 insulin aggregation, absorbance 650 nm, 90 min. Q15084;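 active = mean replicate inhibition above about 25%, with every replicate also reaching it, limit read from the data, passing the limit was not always enough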
NR1D1 modulator – Rev-erb alpha (human) modulation; P20393; Rev-erbα–FITC-DNA binding, fluorescence polarization, 90 min; activity, % at 10 µM; 370,000 tested, 0.79% active; AID 1259318;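 active = activity above about 14%, limit read from the data; passing the limit was not always enough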;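 also: 0% = DMSO wells with 35 nM protein and 100% = DMSO wells with 750 nM protein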
INS-1E GSIS act – primary screen for activators of insulin secretion dependent on glucose, INS-1E cells, GLuc reporter luminescence | INS-1E GLuc reporter insulin secretion, 2-3 h | activation, % at 16.6 µM | 370,000 tested, 0.61% active;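 active = lowest replicate activation of at least 40%, so every replicate reaches that level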;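 also: 0% = median of neutral control wells and 100% = median of IBMX positive control wells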
UUG fidelity – alters start codon recognition fidelity in yeast; S. cerevisiae UUG-firefly luciferase reporter, luminescence/redox ratio; activity score, % at 18.7 µM; actives 0.13% (n = 350,000);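 active means replicate mean at a twofold rise or more, about +100% in these data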;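 further: firefly luciferase made from a UUG start codon reports start codon fidelity; reporter light over untreated wells divided by growth signal over untreated wells; some hits fall short of that in this replicate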
SMARCA2 activ – increases SMARCA2 function in MMTV reporter cells; MG213 cells, MMTV-luciferase reporter, dexamethasone, overnight; activation, % at 9.1 µM; 370,000 tested, 1% active; in the data active = activation above about 7.8%;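 also: 0% = vehicle wells and 100% = reference activator wells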
SMARCA2 conf – SMARCA2 activation, confirmation screen; 3,500 tested, 30% active; AID 652260; activation, % at 9.1 µM; shares compounds with SMARCA2 activ; MG213 cells, MMTV-luciferase with dexamethasone, luminescence, overnight; MG213 cells expressing E1A, Rb sequestered; DMSO wells 0%, reference activator 100%;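 active = activation above its plate's cutoff, the mean activation of tested wells plus 3 SD, cut at about 7.9% in these data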
VP16 Luc act – GAL4-VP16 reporter activation counter-screen | HEK293 GAL4-VP16 pG5luc reporter, luciferase luminescence; scaled: DMSO wells 0%, SAHA wells 100% | activation, % at 9.1 µM | 3,500 tested, 41% active | shares compounds with SMARCA2 activ;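 active = activation above the solvent-only control well mean plus 3 SD, averaged across control plates, cut at about 5.2% in these data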
Numbers without * were called inactive; · = no result.

#1 O=c1cc(-c2ccccc2)nc2cc(-c3ccco3)[nH]n12
#2 O=C1c2nc3cc(-c4ccco4)[nH]n3c(=O)c2CN1C1CCCCC1
#3 Cn1nc(N)c2ncc(-c3ccc(Cl)cc3)nc21
#4 COc1ccc(C(=O)NCC2(c3ccc(OC)c(OC)c3)CCCC2)cc1OC
#5 O=C(COC(=O)/C=C/c1cnc2ccccc2n1)NCC(F)(F)F
#6 COCCNC(=O)COC(=O)/C=C/c1cnc2ccccc2n1
#7 CC(C)NC(=O)N(C)C[C@@H]1Oc2ccc(NC(=O)c3ccncc3)cc2C(=O)N([C@@H](C)CO)C[C@H]1C
#8 O=C(Cc1ccccc1)Nc1ccc2oc(=O)ccc2c1
compound no. | 1 | 2 | 3 | 4 | 5 | 6 | 7 | 8
PDI turbidity | -2 | 2 | -6 | -4 | 1 | 3 | · | 4
ERp5 inh | 2 | 7 | -3 | 4 | · | · | 0 | -1
NR1D1 modulator | -8 | -11 | -2 | -5 | 10 | 1 | · | 0
INS-1E GSIS act | 6 | · | · | · | · | · | 1 | ·
UUG fidelity | 2 | -3 | 10 | 6 | 11 | -18 | -17 | -19
SMARCA2 activ | -2 | 11* | 9.1* | 8.9* | -2 | 12* | · | 3
SMARCA2 conf | · | -2 | 8.9* | -1 | · | 4 | · | ·
VP16 Luc act | · | 2 | 7.7* | -1 | · | 1 | · | ·

#9 O=C(Nc1ccc2oc(=O)ccc2c1)c1ccco1
#10 Cc1cccc(S(=O)(=O)N2CCCCN3[C@H](CO)[C@H](c4ccc(C#CC(C)C)cc4)[C@@H]3C2)c1
#11 Cc1ccc(NC(=S)NNC(=S)Nc2ccc(C)cc2)cc1
#12 Cc1ccc(NC(=S)Nc2cc(C)on2)cc1
#13 Cc1cc(C(=O)N/N=C/c2cccc(Cl)c2Cl)no1
#14 CCCc1cc(C(=O)Nc2ccc(CC)cc2)no1
#15 CCCc1cc(C(=O)Nc2ccc(C)cc2)no1
#16 Cc1ccc(NC(=O)c2cc(C)on2)cc1
compound no. | 9 | 10 | 11 | 12 | 13 | 14 | 15 | 16
PDI turbidity | 10 | · | 0 | -1 | -1 | -8 | · | 1
ERp5 inh | · | -3 | 0 | -1 | · | 3 | -4 | ·
NR1D1 modulator | 3 | · | 3 | 7 | 2 | -5 | 5 | 7
INS-1E GSIS act | · | 14 | · | 1 | · | 3 | · | 19
UUG fidelity | -18 | 7 | 1 | -7 | -15 | -21 | -8 | ·
SMARCA2 activ | 8.3* | · | -1 | 8.6* | 11* | 3 | 12* | 8.7*
SMARCA2 conf | 2 | · | · | 4 | 4 | · | 7 | 6
VP16 Luc act | 3 | · | · | 13* | 8.8* | · | 6.9* | 18*

The list goes on, starting with the last 2 of the part before.
#15 CCCc1cc(C(=O)Nc2ccc(C)cc2)no1
#16 Cc1ccc(NC(=O)c2cc(C)on2)cc1
#17 COc1ccc(-c2cn(CC[C@@H]3CC[C@H](NC(=O)Nc4ccc(F)cc4)[C@H](CO)O3)nn2)cc1
#18 C[C@@H]1CN([C@H](C)CO)S(=O)(=O)c2ccc(C#C[C@@H](C)O)cc2O[C@@H]1CN(C)C(=O)Nc1ccccc1
#19 CCNC(=O)C[C@H]1CC[C@@H](NS(=O)(=O)c2ccc(C)cc2)[C@H](CO)O1
#20 O=C(Cc1ccc(F)cc1)N(c1ccc(F)cc1)C1C=CS(=O)(=O)C1 (stereo not drawn)
#21 O=C(Cc1ccccc1)N(c1ccc(F)cc1)C1C=CS(=O)(=O)C1 (stereo not drawn)
#22 O=C1NC(=O)C2(C=C(c3ccccc3)C(O)(c3ccccc3)C2)N1 (stereo not drawn)
#23 C[C@@H]1CCCCO[C@H](CN(C)C(=O)Nc2ccc(F)cc2)[C@@H](C)CN([C@H](C)CO)C(=O)c2cc(NC(=O)CCC(F)(F)F)ccc2O1
#24 COc1ccc(N(CCCN2C(=O)c3cccc4cccc(c34)C2=O)C(=O)c2cccnc2)cc1
#25 COc1ccc(N(CCCN2C(=O)c3cccc4cccc(c34)C2=O)C(=O)c2ccncc2)cc1
#26 COCC(C)NC(=O)c1noc2c1CCc1cc(OC)ccc1-2 (stereo not drawn)
#27 O=C(C[C@@H]1C=C[C@@H](NC(=O)CN2CCOCC2)[C@@H](CO)O1)NC1CCC1
compound no. | 15 | 16 | 17 | 18 | 19 | 20 | 21 | 22 | 23 | 24 | 25 | 26 | 27
PDI turbidity | · | 1 | · | · | · | 2 | 0 | 1 | · | -2 | 1 | -2 | ·
ERp5 inh | -4 | · | 5 | 4 | 0 | · | 0 | 9 | 5 | -1 | -4 | · | -3
NR1D1 modulator | 5 | 7 | · | · | · | -2 | 6 | 5 | · | 1 | 5 | 2 | ·
INS-1E GSIS act | · | 19 | 9 | 9 | 2 | 8 | 6 | -24 | 1 | 12 | -2 | -4 | 18
UUG fidelity | -8 | · | · | 13 | -8 | 20 | -5 | · | -1 | · | · | -12 | -6
SMARCA2 activ | 12* | 8.7* | · | · | · | 0 | 9.9* | 8.2* | · | 2 | 8.0* | 9.7* | ·
SMARCA2 conf | 7 | 6 | · | · | · | · | -2 | 1 | · | · | 3 | 3 | ·
VP16 Luc act | 6.9* | 18* | · | · | · | · | 0 | 1 | · | · | 3 | 11* | ·
